{"sequences": {"note": "Protein sequences, listed by entry. Tags and fused reporters are not part of them.", "UniProt Q07912, whole entry, species assumed": "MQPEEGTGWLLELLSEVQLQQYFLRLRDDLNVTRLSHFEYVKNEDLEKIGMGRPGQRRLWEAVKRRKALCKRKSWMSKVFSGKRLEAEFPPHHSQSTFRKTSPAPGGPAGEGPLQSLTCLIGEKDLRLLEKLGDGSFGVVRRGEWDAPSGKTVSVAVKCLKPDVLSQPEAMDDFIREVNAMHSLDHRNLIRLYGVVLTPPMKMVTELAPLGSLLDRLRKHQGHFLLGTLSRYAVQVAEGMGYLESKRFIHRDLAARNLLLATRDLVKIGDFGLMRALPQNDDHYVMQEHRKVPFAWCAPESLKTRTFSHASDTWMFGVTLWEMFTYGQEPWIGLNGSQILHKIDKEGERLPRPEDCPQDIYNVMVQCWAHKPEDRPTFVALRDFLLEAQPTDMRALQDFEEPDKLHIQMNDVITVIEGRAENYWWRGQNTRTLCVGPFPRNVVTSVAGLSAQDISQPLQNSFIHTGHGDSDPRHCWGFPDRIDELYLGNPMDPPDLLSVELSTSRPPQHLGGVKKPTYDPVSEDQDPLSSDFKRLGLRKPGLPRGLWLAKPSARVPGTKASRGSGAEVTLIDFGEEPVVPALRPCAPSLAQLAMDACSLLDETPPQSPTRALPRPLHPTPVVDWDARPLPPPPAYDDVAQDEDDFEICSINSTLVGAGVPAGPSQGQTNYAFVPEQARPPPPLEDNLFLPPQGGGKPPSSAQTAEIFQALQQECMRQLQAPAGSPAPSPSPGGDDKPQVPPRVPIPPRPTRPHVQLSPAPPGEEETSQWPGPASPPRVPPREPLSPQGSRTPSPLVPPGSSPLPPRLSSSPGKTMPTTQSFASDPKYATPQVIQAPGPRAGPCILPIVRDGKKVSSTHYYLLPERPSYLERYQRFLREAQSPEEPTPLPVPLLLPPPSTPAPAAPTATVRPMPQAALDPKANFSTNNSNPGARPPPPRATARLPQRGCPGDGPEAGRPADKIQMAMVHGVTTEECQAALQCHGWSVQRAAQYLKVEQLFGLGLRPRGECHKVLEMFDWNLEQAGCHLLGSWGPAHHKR"}, "source": "patent US9199944B2", "about": "(priority 2012, dated 2015)", "target": "ACK1 (Homo sapiens (Human), UniProt Q07912)", "experiment": "biochemical", "conditions": "40 min; for remaining activity at 0.1 µM: read-out: Ack1 activation rate % (0.1 μM); for remaining activity at 1 µM: read-out: Ack1 activation rate % (1 μM)", "data": [{"smiles": "COc1cc(N2CCN(S(C)(=O)=O)CC2)ccc1Nc1ncc(Cl)c(Nc2ccc(N3CCN(S(C)(=O)=O)CC3)cc2OC)n1", "values": [{"measurement": "remaining activity at 0.1 µM", "result": 0, "unit": "%"}, {"measurement": "remaining activity at 1 µM", "result": 0, "unit": "%"}]}, {"smiles": "CCCOc1cc(N2CCN(C(C)=O)CC2)ccc1Nc1nc(Nc2ccc(N3CCN(C(C)=O)CC3)cc2OC)ncc1Cl", "note": "[Example 2, 1-(4-(4-(2-(4-(4-acetylpiperazin-1-yl)-2-methoxyphenylamino)-5-chloropyrimidin-4-ylamino)-3-propoxyphenyl)piperazin-1-yl)ethanone]", "values": [{"measurement": "remaining activity at 0.1 µM", "result": 9, "unit": "%"}, {"measurement": "remaining activity at 1 µM", "result": 2, "unit": "%"}]}, {"smiles": "COc1cc(N2CCN(C(C)=O)CC2)ccc1Nc1ncc(Cl)c(Nc2ccc(N3CCN(C(C)=O)CC3)cc2OC(C)C)n1", "note": "[Example 3, 1-(4-(4-(4-(4-(4-acetylpiperazin-1-yl)-2-isopropoxyphenylamino)-5-chloropyrimidin-2-ylamino)-3-methoxyphenyl)piperazin-1-yl)ethanone]", "values": [{"measurement": "remaining activity at 0.1 µM", "result": 2, "unit": "%"}, {"measurement": "remaining activity at 1 µM", "result": 2, "unit": "%"}]}, {"smiles": "CCCOc1cc(N2CCN(C(C)=O)CC2)ccc1Nc1nc(Nc2ccc(N3CCN(C(C)=O)CC3)cc2)ncc1Cl", "note": "[Example 4, 1-(4-(4-(4-(4-(4-acetylpiperazin-1-yl)-2-propoxyphenylamino)-5-chloropyrimidin-2-ylamino)phenyl)piperazin-1-yl)ethanone]", "values": [{"measurement": "remaining activity at 0.1 µM", "result": 12, "unit": "%"}, {"measurement": "remaining activity at 1 µM", "result": 1, "unit": "%"}]}, {"smiles": "COc1cc(N2CCN(C(C)=O)CC2)ccc1Nc1ncc(Cl)c(Nc2ccc(N3CCN(C(C)=O)CC3)cc2)n1", "note": "[Example 8, 1-(4-(4-(2-(4-(4-acetylpiperazin-1-yl)-2-methoxyphenylamino)-5-chloropyrimidin-4-ylamino)phenyl)piperazin-1-yl)ethanone]", "values": [{"measurement": "remaining activity at 0.1 µM", "result": 7, "unit": "%"}, {"measurement": "remaining activity at 1 µM", "result": 1, "unit": "%"}]}, {"smiles": "CC(=O)N1CCN(c2ccc(Nc3ncc(Cl)c(Nc4ccc(N5CCN(C(C)=O)CC5)cc4)n3)cc2)CC1", "note": "[Example 9, 1,1′-(4,4′-(4,4′-(5-chloropyrimidin-2,4-diyl)bis(azanediyl)bis(4,1-phenylene))bis(piperazin-4,1-diyl))diethanone]", "values": [{"measurement": "remaining activity at 0.1 µM", "result": 8, "unit": "%"}, {"measurement": "remaining activity at 1 µM", "result": 1, "unit": "%"}]}, {"smiles": "COc1cc(N2CCN(C(C)=O)CC2)ccc1Nc1nc(Nc2ccc(N3CCN(C(C)=O)CC3)cc2)ncc1Cl", "note": "[Example 10, 1-(4-(4-(4-(4-(4-acetylpiperazin-1-yl)-2-methoxyphenylamino)-5-chloropyrimidin-2-ylamino)phenyl)piperazin-1-yl)ethanone]", "values": [{"measurement": "remaining activity at 0.1 µM", "result": 2, "unit": "%"}, {"measurement": "remaining activity at 1 µM", "result": 0, "unit": "%"}]}, {"smiles": "COc1cc(N2CCN(C(C)=O)CC2)ccc1Nc1ncc(Cl)c(Nc2ccc(N3CCN(S(C)(=O)=O)CC3)cc2OC)n1", "note": "[Example 13, 1-(4-(4-(5-chloro-4-(2-methoxy-4-(4-(methylsulfonyl)piperazin-1-yl)phenylamino)pyrimidin-2-ylamino)-3-methoxyphenyl)piperazin-1-yl)ethanone]", "values": [{"measurement": "remaining activity at 0.1 µM", "result": 0, "unit": "%"}, {"measurement": "remaining activity at 1 µM", "result": 0, "unit": "%"}]}, {"smiles": "COc1cc(N2CCN(C(C)=O)CC2)ccc1Nc1ncc(Cl)c(Nc2ccc(N3CCN(C(=O)CO)CC3)cc2OC)n1", "note": "[Example 14, 1-(4-(4-(2-(4-(4-acetylpiperazin-1-yl)-2-methoxyphenylamino)-5-chloropyrimidin-4-ylamino)-3-methoxyphenyl)piperazin-1-yl)-2-hydroxyethanone]", "values": [{"measurement": "remaining activity at 0.1 µM", "result": 1, "unit": "%"}, {"measurement": "remaining activity at 1 µM", "result": 0, "unit": "%"}]}, {"smiles": "COc1cc(N2CCN(C(C)=O)CC2)ccc1Nc1ccnc(Nc2ccc(N3CCN(C(C)=O)CC3)cc2OC)n1", "note": "[Example 19, 1,1′-(4,4′-(4,4′-(pyrimidin-2,4-diylbis(azanediyl))bis(3-methoxy-4,1-phenylene))bis(piperazin-4,1-diyl))diethanone]", "values": [{"measurement": "remaining activity at 0.1 µM", "result": 6, "unit": "%"}, {"measurement": "remaining activity at 1 µM", "result": 0, "unit": "%"}]}, {"smiles": "COc1cc(N2CCN(C(C)=O)CC2)ccc1Nc1ncc(Cl)c(Nc2ccc(N3CCN(S(N)(=O)=O)CC3)cc2OC)n1", "note": "[Example 21, 4-(4-(2-(4-(4-acetylpiperazin-1-yl)-2-methoxyphenylamino)-5-chloropyrimidin-4-ylamino)-3-methoxyphenyl)piperazin-1-sulfonamide]", "values": [{"measurement": "remaining activity at 0.1 µM", "result": 0, "unit": "%"}, {"measurement": "remaining activity at 1 µM", "result": 0, "unit": "%"}]}, {"smiles": "CCC(=O)N1CCN(c2ccc(Nc3nc(Nc4ccc(N5CCN(C(C)=O)CC5)cc4OC)ncc3Cl)c(OC)c2)CC1", "note": "[Example 22, 1-(4-(4-(2-(4-(4-acetylpiperazin-1-yl)-2-methoxyphenylamino)-5-chloropyrimidin-4-ylamino)-3-methoxyphenyl)piperazin-1-yl)propan-1-one]", "values": [{"measurement": "remaining activity at 0.1 µM", "result": 1, "unit": "%"}, {"measurement": "remaining activity at 1 µM", "result": 0, "unit": "%"}]}, {"smiles": "COc1cc(N2CCN(C(C)=O)CC2)ccc1Nc1nc(Nc2ccc(N3CCN(C(C)=O)CC3)cc2)ncc1F", "note": "[Example 24, 1-(4-(4-(4-(4-(4-acetylpiperazin-1-yl)-2-methoxyphenylamino)-5-fluoropyrimidin-2-ylamino)phenyl)piperazin-1-yl)ethanone]", "values": [{"measurement": "remaining activity at 0.1 µM", "result": 2, "unit": "%"}, {"measurement": "remaining activity at 1 µM", "result": 0, "unit": "%"}]}, {"smiles": "COc1cc(N2CCN(C(C)=O)CC2)ccc1Nc1ncc(F)c(Nc2ccc(N3CCNCC3)cc2OC)n1", "note": "[Example 25, 1-(4-(4-(5-fluoro-4-(2-methoxy-4-(piperazin-1-yl)phenylamino)pyrimidin-2-ylamino)-3-methoxyphenyl)piperazin-1-yl)ethanone]", "values": [{"measurement": "remaining activity at 0.1 µM", "result": 4, "unit": "%"}, {"measurement": "remaining activity at 1 µM", "result": 0, "unit": "%"}]}, {"smiles": "COc1cc(N2CCN(C(C)=O)CC2)ccc1Nc1ncc(F)c(Nc2ccc(N3CCN(S(C)(=O)=O)CC3)cc2OC)n1", "note": "[Example 26, 1-(4-(4-(5-fluoro-4-(2-methoxy-4-(4-(methylsulfonyl)piperazin-1-yl)phenylamino)pyrimidin-2-ylamino)-3-methoxyphenyl)piperazin-1-yl)ethanone]", "values": [{"measurement": "remaining activity at 0.1 µM", "result": 0, "unit": "%"}, {"measurement": "remaining activity at 1 µM", "result": 1, "unit": "%"}]}, {"smiles": "COc1cc(N2CCN(C(C)=O)CC2)ccc1Nc1ncc(F)c(Nc2ccc(N3CCN(CCO)CC3)cc2OC)n1", "note": "[Example 28, 1-(4-(4-(5-fluoro-4-(4-(4-(2-hydroxyethyl)piperazin-1-yl)-2-methoxyphenylamino)pyrimidin-2-ylamino)-3-methoxyphenyl)piperazin-1-yl)ethanone]", "values": [{"measurement": "remaining activity at 0.1 µM", "result": 1, "unit": "%"}, {"measurement": "remaining activity at 1 µM", "result": 2, "unit": "%"}]}, {"smiles": "CCOc1cc(N2CCN(C(C)=O)CC2)ccc1Nc1nc(Nc2ccc(N3CCN(C(C)=O)CC3)cc2OC)ncc1F", "note": "[Example 29, 1-(4-(4-(4-(4-(4-acetylpiperazin-1-yl)-2-ethoxyphenylamino)-5-fluoropyrimidin-2-ylamino)-3-methoxyphenyl)piperazin-1-yl)ethanone]", "values": [{"measurement": "remaining activity at 0.1 µM", "result": "≤ 10", "unit": "%"}, {"measurement": "remaining activity at 1 µM", "result": "≤ 3", "unit": "%"}]}, {"smiles": "COc1cc(N2CCN(C(C)=O)CC2)ccc1Nc1ncc(F)c(Nc2ccc(N3CCN(C)CC3)cc2OC)n1", "note": "[Example 30, 1-(4-(4-(5-fluoro-4-(2-methoxy-4-(4-methylpiperazin-1-yl)phenylamino)pyrimidin-2-ylamino)-3-methoxyphenyl)piperazin-1-yl)ethanone]", "values": [{"measurement": "remaining activity at 0.1 µM", "result": 2, "unit": "%"}, {"measurement": "remaining activity at 1 µM", "result": 0, "unit": "%"}]}, {"smiles": "COc1cc(N2CCN(C(C)=O)CC2)ccc1Nc1ncc(F)c(Nc2ccc(N3CCN(C(=O)CO)CC3)cc2OC)n1", "note": "[Example 36, 1-(4-(4-(2-(4-(4-acetylpiperazin-1-yl)-2-methoxyphenylamino)-5-fluoropyrimidin-4-ylamino)-3-methoxyphenyl)piperazin-1-yl)-2-hydroxyethanone]", "values": [{"measurement": "remaining activity at 0.1 µM", "result": 2, "unit": "%"}, {"measurement": "remaining activity at 1 µM", "result": 0, "unit": "%"}]}, {"smiles": "COc1cc(N2CCN(C(C)=O)CC2)ccc1Nc1ncc(F)c(Nc2ccc(N3CCN(C)CC3)cc2OC(F)F)n1", "note": "[Example 38, 1-(4-(4-(4-(2-(difluoromethoxy)-4-(4-methylpiperazin-1-yl)phenylamino)-5-fluoropyrimidin-2-ylamino)-3-methoxyphenyl)piperazin-1-yl)ethanone]", "values": [{"measurement": "remaining activity at 0.1 µM", "result": 1, "unit": "%"}, {"measurement": "remaining activity at 1 µM", "result": 0, "unit": "%"}]}, {"smiles": "COC(=O)N1CCN(c2ccc(Nc3nc(Nc4ccc(N5CCN(C(C)=O)CC5)cc4OC)ncc3F)c(OC(F)F)c2)CC1", "note": "[Example 41, methyl 4-(4-(2-(4-(4-acetylpiperazin-1-yl)-2-methoxyphenylamino)-5-fluoropyrimidin-4-ylamino)-3-(difluoromethoxy)phenyl)piperazin-1-carboxylate]", "values": [{"measurement": "remaining activity at 0.1 µM", "result": 1, "unit": "%"}, {"measurement": "remaining activity at 1 µM", "result": 0, "unit": "%"}]}, {"smiles": "COc1cc(N2CCN(C(C)=O)CC2)ccc1Nc1ncc(F)c(Nc2ccc(N3CCN(CCO)CC3)cc2OC(F)F)n1", "note": "[Example 42, 1-(4-(4-(4-(2-(difluoromethoxy)-4-(4-(2-hydroxyethyl)piperazin-1-yl)phenylamino)-5-fluoropyrimidin-2-ylamino)-3-methoxyphenyl)piperazin-1-yl)ethanone]", "values": [{"measurement": "remaining activity at 0.1 µM", "result": 2, "unit": "%"}, {"measurement": "remaining activity at 1 µM", "result": 0, "unit": "%"}]}, {"smiles": "COc1cc(N2CCN(C(C)=O)CC2)ccc1Nc1ncc(F)c(Nc2ccc(N3CCN(C(=O)CO)CC3)cc2OC(F)F)n1", "note": "[Example 44, 1-(4-(4-(2-(4-(4-acetylpiperazin-1-yl)-2-methoxyphenylamino)-5-fluoropyrimidin-4-ylamino)-3-(difluoromethoxy)phenyl)piperazin-1-yl)-2-hydroxyethanone]", "values": [{"measurement": "remaining activity at 0.1 µM", "result": 2, "unit": "%"}, {"measurement": "remaining activity at 1 µM", "result": 1, "unit": "%"}]}, {"smiles": "COc1cc(N2CCN(C(C)=O)CC2)ccc1Nc1ncc(C(F)(F)F)c(Nc2ccc(N3CCNCC3)cc2OC)n1", "note": "[Example 56, 1-(4-(3-methoxy-4-((4-((2-methoxy-4-(piperazin-1-yl)phenyl)amino)-5-(trifluoromethyl)pyrimidin-2-yl)amino)phenyl)piperazin-1-yl)ethanone]", "values": [{"measurement": "remaining activity at 0.1 µM", "result": 1, "unit": "%"}, {"measurement": "remaining activity at 1 µM", "result": 0, "unit": "%"}]}, {"smiles": "CCNC(=O)N1CCN(c2ccc(Nc3nc(Nc4ccc(N5CCN(C(C)=O)CC5)cc4OC)ncc3C(F)(F)F)c(OC)c2)CC1", "note": "[Example 57, 4-(4-((2-((4-(4-acetylpiperazine)-2-methoxyphenyl)amino)-5-(trifluoromethyl)pyrimidin-4-yl)amino)-3-methoxyphenyl)-N-ethylpiperazin-1-carboxyamide]", "values": [{"measurement": "remaining activity at 0.1 µM", "result": 1, "unit": "%"}, {"measurement": "remaining activity at 1 µM", "result": 0, "unit": "%"}]}, {"smiles": "COc1cc(N2CCN(C(C)=O)CC2)ccc1Nc1ncc(C(F)(F)F)c(Nc2ccc(N3CCN(C(=O)CO)CC3)cc2OC)n1", "note": "[Example 58, 1-(4-(4-((2-((4-(4-acetylpiperazin-1-yl)-2-methoxyphenyl)amino)-5-(trifluoromethyl)pyrimidin-4-yl)amino)-3-methoxyphenyl)piperazin-1-yl)-2-hydroxyethanone]", "values": [{"measurement": "remaining activity at 0.1 µM", "result": 5, "unit": "%"}, {"measurement": "remaining activity at 1 µM", "result": 1, "unit": "%"}]}]}
